Values quoted from earlier work, collected in paper PMC11965407 (Translational Psychiatry, 2025).

Test system: serotonin reuptake
Details: oral administration, rats; cited from earlier work

## Fc1ccc([C@@H]2CCNC[C@H]2COc2ccc3c(c2)OCO3)cc1 [paroxetine, paroxetine hydrochloride]
  ED50, inhibition of serotonin reuptake: 1.9 mg/kg

Counter-ions that a name gives are not always drawn.
